Results on one molecule are retold here after US20040131545A1, “Amyloid plaque aggregation inhibitors and diagnostic imaging agents” (Trustees of the University of Pennsylvania, priority 2001, published 2004).

Sequences of proteins named here, by UniProt entry; tags and fusion partners are left off. Residues count along the entry.
UniProt P05067, 672-711 limits assumed: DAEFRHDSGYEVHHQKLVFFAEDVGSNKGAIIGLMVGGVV
UniProt P05067, 672-713 limits assumed: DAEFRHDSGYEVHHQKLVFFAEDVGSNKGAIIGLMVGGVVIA

Molecules are shown by their SMILES.

In assay [1] the target is T1, aggregates of Aβ(1-40) (Homo sapiens, UniProt P05067).
T1 construct: The solid forms of peptides Aβ(1-40) and Aβ(1-42) were purchased; purchased Bachem (King of Prussia, Pa.)
In words: Inhibition of [125I]3 binding to aggregated Aβ(1-40) peptide in solution. As to conditions: 25° C.; mean±SEM of three independent experiments; read-out: Inhibition constants (Ki) on ligand binding to aggregates of Aβ(1-40) vs [^125I]3. Here is the method:
(§1) The solid forms of peptides Aβ(1-40) and Aβ(1-42) were purchased from Bachem (King of Prussia, Pa.). Aggregation of peptides were carried out by gently dissolving the peptide [0.5 mg/mL for Aβ(1-40) and 0.25 mg/mL for Aβ (1-42) in a buffer solution (pH 7.4) containing 10 mM sodium phosphate and 1 mM EDTA. The solutions were incubated at 37° C. for 36-42 h with gentle and constant shaking. Binding studies were carried out in 12×75 mm borosilicate glass tubes according to the procedure described with some modifications (Klunk, W. E., et al., Biol. Psychiatry 35:627 (1994)). Aggregated fibrils (10-50 nM in the final assay mixture) were added to the mixture containing […] of radioligands (0.01-0.5 nM) in 40% EtOH and 10% EtOH in a final volume of 1 mL for saturation studies. […] The mixture was incubated at room temperature for 3 h and the bound and the free radioactivity were separated by vacuum filtration through Whatman GF/B filters using a Brandel M-24R cell harvester followed by 2×3 mL washes of 10% ethanol at room temperature. Filters containing the bound I-125 ligand were counted in a gamma counter (Packard 5000) with 70% counting efficiency. The results of saturation and inhibition experiments were subjected to nonlinear regression analysis using software EBDA52 by which Kd and Ki values were calculated. […]

The target of assay [2] is T2, aggregates of Aβ(1-42) (Homo sapiens, UniProt P05067).
T2 construct: The solid forms of peptides Aβ(1-40) and Aβ(1-42) were purchased; purchased Bachem (King of Prussia, Pa.)
The experiment in a line: Inhibition of [125I]3 binding to aggregated Aβ(1-42) peptide in solution. The note with it: 25° C.; mean±SEM of three independent experiments; read-out: Inhibition constants (Ki) on ligand binding to aggregates of Aβ(1-42) vs [^125I]3. As for the experimental part: as §1

With `Cc1ccc2c(c1)sc(-c1ccc(N(C)C)cc1)[n+]2C` [Thioflavin T, reference compound], the Ki stood at 116 ± 20 nM in assay [1] and 294 ± 40 nM in assay [2].
